SMILES strings stand for the structures. Where “and” joins values, the source holds several entries; their conditions need not be identical. Equal entries are not always repeated. This is a selection; strong and weak results do not stand in their true shares. Some tests of the compounds listed are not included; inactive here does not mean inactive elsewhere. Results filed as inconclusive are left out. Calls of active or inactive are those of the source. Calls come from the whole dose curve; as a rule, active = well fitted inhibition curve with a large enough effect; inconclusive = small, poorly fitted or top-dose-only effect, or another doubt; inactive = no such curve, though single readings can be large or run the other way.
% is set by controls: 0 for no effect and ±100 for the full control effect.

The chains behind the UniProt entries cited, without tags or fusion partners.
UniProt O94925, whole entry: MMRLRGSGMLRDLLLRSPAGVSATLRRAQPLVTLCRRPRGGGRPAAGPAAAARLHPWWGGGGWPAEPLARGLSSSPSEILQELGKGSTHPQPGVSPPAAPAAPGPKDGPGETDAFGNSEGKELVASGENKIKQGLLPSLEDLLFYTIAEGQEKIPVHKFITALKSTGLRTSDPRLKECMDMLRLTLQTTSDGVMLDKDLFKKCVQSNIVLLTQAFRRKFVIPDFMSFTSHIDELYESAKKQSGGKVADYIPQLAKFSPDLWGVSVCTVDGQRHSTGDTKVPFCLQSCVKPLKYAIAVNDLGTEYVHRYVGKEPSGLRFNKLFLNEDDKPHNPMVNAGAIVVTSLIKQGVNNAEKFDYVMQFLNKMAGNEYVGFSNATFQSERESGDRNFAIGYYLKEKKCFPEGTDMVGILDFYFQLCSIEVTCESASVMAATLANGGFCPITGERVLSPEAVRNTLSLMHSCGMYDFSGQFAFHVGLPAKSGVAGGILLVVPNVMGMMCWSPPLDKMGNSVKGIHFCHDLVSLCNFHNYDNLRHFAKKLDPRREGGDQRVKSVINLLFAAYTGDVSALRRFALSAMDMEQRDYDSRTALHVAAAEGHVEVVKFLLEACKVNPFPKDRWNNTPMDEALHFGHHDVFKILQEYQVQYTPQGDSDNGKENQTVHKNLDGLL

For the assay, the target named is Glutaminase kidney isoform, mitochondrial (Homo sapiens) (UniProt O94925). The assay is described as follows: qHTS for Inhibitors of Glutaminase (GLS). The settings on record: GLS enzymatic activity, qHTS titration; at 45.5 µM (top of the series). For orientation: Quantitative high-throughput screening tests each substance at several concentrations.
For the compound `CC(C)COc1ccc(C(=O)NCC2(N(C)C)CCCCC2)cc1`, the activity change, negative = inhibition is inactive: -0.131%.
In the case of `COc1cccc(C(=O)NCC2(N3CCOCC3)CCCCC2)c1` it was inactive: 2.96%; in that of `O=C(OC1CN2CCC1CC2)C(CO)(c1ccccc1)c1ccccc1` (stereo unspecified), inactive: 8.13%; in that of `CC(C)Oc1ccc(C(=O)NCC2(N(C)C)CCCCC2)cc1`, inactive: 2.87% and inactive: 8.55%.
To `O=C(OCCN1CCCC1)C(O)(c1ccccc1)c1ccccc1` belongs inactive: 7.22%; to `CN(C)c1cccc(C(=O)NCC2(N(C)C)CCCCC2)c1`, inactive: 21.6%; to `C=C(C)C#CC(O)(C(=O)OC1CCN(C)CC1)c1ccccc1` (stereo unspecified), inactive: -30%.
As to `COc1cc(C(=O)NCC2(N(C)C)CCCCC2)cc(OC)c1OC`, the activity change, negative = inhibition is inactive: 19%.
In the case of `Cc1cccc(C(=O)NCC2(N(C)C)CCCCC2)c1` it was inactive: 6.23%; in that of `COc1ccc(Br)c(C(=O)NCC2(N3CCCCC3)CCCCC2)c1`, inactive: -4.48%.
To `COc1cc(C(=O)NCC2(N(C)C)CCCCC2)c([N+](=O)[O-])cc1OC` belongs inactive: -10.8%.
Consider `CN(C)C1(CNC(=O)c2ccc(Br)cc2)CCCCC1`, for which the activity change, negative = inhibition is inactive: 13.9%.
Regarding `O=C(NCC1(N2CCCCC2)CCCCC1)c1cccc(Cl)c1`, the activity change, negative = inhibition is inactive: 12.9%.
To `COc1cccc(C(=O)NCC2(N3CCCCC3)CCCCC2)c1` belongs inactive: -3.41%; to `COc1ccc(C(=O)NCC2(N(C)C)CCCCC2)cc1Cl`, inactive: 2.24%; to `CCCCOc1ccccc1C(=O)NCC1(N(C)C)CCCCC1`, inactive: 6.26%.
In the case of `CN1CCCC(OC(=O)C(O)(c2ccccc2)c2ccccc2)C1` (stereo unspecified), the activity change, negative = inhibition was inactive: 23.2%.
For the compound `CN(C)C1(CNC(=O)c2ccccc2[N+](=O)[O-])CCCCC1`, the activity change, negative = inhibition was inactive: 4.8%.
To `Cc1ccccc1C(=O)NCC1(N2CCCCC2)CCCCC1` belongs inactive: -1.05%; to `CN(C)C1CCCC1OC(=O)C(O)(c1ccccc1)c1ccccc1` (stereo unspecified), inactive: 8.43%.
For `CN(C)c1ccc(C(=O)NCC2(N(C)C)CCCCC2)cc1`, the activity change, negative = inhibition was inactive: 18.3%.
To `COc1ccc(C(=O)NCC2(N(C)C)CCCCC2)cc1` belongs inactive: 10.2%.
With `CCOc1cccc(C(=O)NCC2(N(C)C)CCCCC2)c1`, the activity change, negative = inhibition was inactive: 5.78%.
In the case of `Cc1cc(C(=O)NCC2(N3CCCCC3)CCCCC2)ccc1[N+](=O)[O-]` it was inactive: 9.03%; in that of `CCN1CCCC(OC(=O)C2(O)c3ccccc3C=Cc3ccccc32)C1` (stereo unspecified), inactive: 6.04%; in that of `O=C(NCC1(N2CCCCC2)CCCCC1)c1cccc(Br)c1`, inactive: 2.35%.
To `C=CCN1CCN(CCOC(=O)C(O)(c2ccccc2)c2ccccc2)CC1` belongs inactive: -2.99%.
Regarding `O=C(NCC1(N2CCCCC2)CCCCC1)c1cc(F)c(F)cc1Cl`, the activity change, negative = inhibition was inactive: -2.96%.
In the case of `CN1[C@@H]2CC[C@H]1CC(OC(=O)C(O)(c1ccccc1)c1ccccc1)C2` (stereo partly specified), the activity change, negative = inhibition is inactive: -3.39%.
In the case of `O=C(NCC1(N2CCCCC2)CCCCC1)c1cc([N+](=O)[O-])ccc1Cl` it was inactive: -11%.
To `Cc1ccc(C(=O)NCC2(N3CCCCC3)CCCCC2)cc1` belongs inactive: -28.6%; to `CN(C)C1(CNC(=O)c2ccccc2F)CCCCC1`, inactive: 2.25%.
In the case of `CCN(CC)CC(C)C(C)OC(=O)C(O)(c1ccccc1)c1ccccc1` (stereo unspecified) it was inactive: -4.27%; in that of `CN(C)C1(CNC(=O)c2cccc(Cl)c2)CCCCC1`, inactive: 24.4%.
Regarding `COc1cc(SC)ccc1C(=O)NCC1(N(C)C)CCCCC1`, the activity change, negative = inhibition is inactive: -2.13%.
In the case of `CC(C)N1C(=O)CC2(CCN(CCOC(=O)C(O)(c3ccccc3)c3ccccc3)CC2)C1=O`, the activity change, negative = inhibition was inactive: 0.214%.

For the origin of these results see PubChem BioAssay AID624170 (National Center for Advancing Translational Sciences (NCATS), 2012).
